The assay relates to human mesenchymal stem cells (hMSCs). Briefly: Osteogenic marker gene expression (RT-qPCR) of hMSCs on BMP2 functionalized PIPA scaffolds. It counts as cell-based. The note with it: preliminary. How it is done: 12 PIPA scaffolds (ø=4 mm, h=2 mm) were placed in vials containing 500 μl of 10% BSA in PBS supplemented with either 20 or 100 ng/ml BMP2. After vortexing the vials were centrifuged at 200 g for 10 min. The PIPA scaffolds were placed in petri dishes and vacuum dried for 2 hours (hr) at room temperature before stored at 4° C. overnight.
40000 hMSCs were seeded pr scaffold in DMEM high glucose supplemented with 10% FBS, 100 nM dexamethasone, 10 mM β-glycerophosphate, 50 μM L-ascorbic acid-2 phosphate, and 10^−8 M vitamin D and cultured for up to 14 days at 37° C., in a humidified atmosphere of 5% CO2. Media were changed twice a week.
Gene expression of osteogenic markers were analyzed after 2 hr, 6 hr, 2, 7, and 14 days using RT-qPCR

B1: BMP2: BMP2 at 20 or 100 ng/ml dip coated onto PIPA scaffolds (protein, UniProt P12643 283-396, looked up)
Bone morphogenetic protein 2: QAKHKQRKRLKSSCKRHPLYVDFSDVGWNDWIVAPPGYHAFYCHGECPFPLADHLNSTNHAIVQTLVNSVNSKIPKACCVPTELSAISMLYLDENEKVVLKNYQDMVVEGCGCR
In the case of B1, the “osteocalcin (OC) gene expression” value (20 ng/ml BMP2, after 14 days) is recorded as “seems to stimulate”. Also, the runx2 gene expression entry (20 ng/ml BMP2, after two hours) was “seem to stimulate” and the runx2 gene expression entry (100 ng/ml BMP2, after two hours) is reported as “seem to stimulate”. Moreover, for the setting “100 ng/ml BMP2, after two days”, the “alkaline phosphatase (ALP) gene expression” value is given as “seems to stimulate”.

The values above are taken from patent publication US20140350680A1, “PROCESS FOR MODIFYING THE SURFACE MORPHOLOGY OF A MEDICAL DEVICE” (priority 2011, published 2014).
